# Source: patent US9290505B2, “Substituted imidazo[1,2-a]pyrazines as Syk inhibitors” (Gilead Sciences, Inc., priority 2013, dated 2016)
# Molecular target: Syk (Homo sapiens (Human), UniProt P43405)
# Assay: High Throughput Syk Biochemical Assay (KinEASE TR-FRET)
# Description: Syk activity was measured using KinEASE (Cisbio), a time-resolved fluorescence resonance energy transfer (TR-FRET) immunoassay. In this assay, Syk-catalyzes the phosphorylation of a XL665-labeled peptide substrate. Europium conjugated phospho-tyrosine specific antibody binds the resulting phosphorylated peptide. Formation of phosphorylated peptide is quantified by TR-FRET with Europium as the donor and XL665 the acceptor in a 2-step endpoint assay. In brief, test compounds serially diluted in DMSO were delivered into Corning white, low volume, non-binding 384 well plates using the Echo 550 acoustic liquid dispenser (Labcyte®). Syk enzyme and substrates were dispensed into assay plates using a Multi-Flo (Bio-Tek Instruments).
smiles,measurement,setting,value
"Nc1cncc(-c2cn3ccnc3c(Nc3ccc(N4CCN(C5COC5)CC4)cc3)n2)n1 [Ex.-2, 6-(6-aminopyrazin-2-yl)-N-(4-(4-(oxetan-3-yl)piperazin-1-yl)phenyl)imidazo[1,2-a]pyrazin-8-amine]",IC50,"20 μM ATP, 0.015 nM Syk",13.5 nM
same,IC50,comparison table with known Syk inhibitors,13.5 nM
